Consider one compound from ChEMBL document CHEMBL5726042, “P2X7 modulators” (2017).

The chains behind the UniProt entries cited, without tags or fusion partners. Where a name states a change or a piece, a line headed by the entry shows the natural chain unless it says otherwise.
UniProt Q99572: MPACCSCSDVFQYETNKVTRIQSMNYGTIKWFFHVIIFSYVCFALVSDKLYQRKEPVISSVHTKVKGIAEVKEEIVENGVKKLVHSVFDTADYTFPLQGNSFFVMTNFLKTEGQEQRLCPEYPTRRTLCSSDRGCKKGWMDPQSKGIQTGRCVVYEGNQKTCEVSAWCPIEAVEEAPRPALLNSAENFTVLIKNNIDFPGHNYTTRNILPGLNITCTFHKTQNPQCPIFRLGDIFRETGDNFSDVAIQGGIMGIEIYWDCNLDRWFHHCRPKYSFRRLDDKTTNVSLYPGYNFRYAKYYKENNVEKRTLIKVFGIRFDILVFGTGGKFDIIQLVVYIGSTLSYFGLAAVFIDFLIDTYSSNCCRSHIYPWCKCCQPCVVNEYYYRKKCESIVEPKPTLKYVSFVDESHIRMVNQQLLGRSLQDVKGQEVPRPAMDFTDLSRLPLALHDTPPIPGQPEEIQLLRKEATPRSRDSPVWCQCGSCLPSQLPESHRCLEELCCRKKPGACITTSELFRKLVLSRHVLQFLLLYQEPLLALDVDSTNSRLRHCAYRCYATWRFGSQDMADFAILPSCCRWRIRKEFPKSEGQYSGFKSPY

pIC50: −log10 of the molar value. Bounds are passed on as bounds.

The test has as its target P2X purinoceptor 7 (Homo sapiens, UniProt Q99572). Put plainly: Ca2+ flux Assay: 1321N1 cells expressing the recombinant human or rat P2X7 channel was cultured in HyQ DME/(HyClone/Dulbecco's Modified Eagle Medium) high glucose supplemented with 10% Fetal Bovine Serum (FBS) and appropriate selection marker. Cells were seeded at a density of 25000 cells/well (96-well clear bottom black walled plates) in 100 μl volume/well. On the day of the experiment, cell plates were washed with assay buffer, containing (in mM): 130 NaCl, 2 KCl, 1 CaCl2, 1 MgCl2, 10 HEPES, 5 glucose; pH 7.40 and 300 mOs. After the wash, cells were loaded with the Calcium-4 dye (Molecular Device) and incubated in the dark for 60 minutes. Test compounds were prepared at 250× the test concentration in neat DMSO. Intermediate 96-well compound plates were prepared by transferring 1.2 μL of the compound into 300 μL of assay buffer. A further 3× dilution occurred when transferring 50 μL/well of the compound plate to 100 μL/well in the cell plate. Cells were incubated with test compounds and dye for 30 minutes. Calcium dye fluorescence was monitored in FLIPR as the cells were challenged by adding 50 μL/well of BzATP (final concentration is 250 μM BzATP (human and rat)). The fluorescence change was measured 180 seconds after adding the agonist. The test is classed as cell-based. Background: Calcium flux is commonly read through the fluorescence of an indicator in the cells.

As a reminder, the pIC50 is the IC50 on a negative log10 scale, so that one unit is a factor of ten. For the compound `Cc1nc2c(c(-c3ccn[nH]3)n1)CC(C)N(C(=O)c1cccc(OC(F)(F)F)c1F)C2` (stereo unspecified), the pIC50 is less than 5.00.
